# Results from US20040127518A1, “Modulation of anxiety through blockade of anandamide hydrolysis” (priority 2002, published 2004).
# Protein sequences, listed by entry. Tags and fused reporters are not part of them.
# UniProt O42275, whole entry: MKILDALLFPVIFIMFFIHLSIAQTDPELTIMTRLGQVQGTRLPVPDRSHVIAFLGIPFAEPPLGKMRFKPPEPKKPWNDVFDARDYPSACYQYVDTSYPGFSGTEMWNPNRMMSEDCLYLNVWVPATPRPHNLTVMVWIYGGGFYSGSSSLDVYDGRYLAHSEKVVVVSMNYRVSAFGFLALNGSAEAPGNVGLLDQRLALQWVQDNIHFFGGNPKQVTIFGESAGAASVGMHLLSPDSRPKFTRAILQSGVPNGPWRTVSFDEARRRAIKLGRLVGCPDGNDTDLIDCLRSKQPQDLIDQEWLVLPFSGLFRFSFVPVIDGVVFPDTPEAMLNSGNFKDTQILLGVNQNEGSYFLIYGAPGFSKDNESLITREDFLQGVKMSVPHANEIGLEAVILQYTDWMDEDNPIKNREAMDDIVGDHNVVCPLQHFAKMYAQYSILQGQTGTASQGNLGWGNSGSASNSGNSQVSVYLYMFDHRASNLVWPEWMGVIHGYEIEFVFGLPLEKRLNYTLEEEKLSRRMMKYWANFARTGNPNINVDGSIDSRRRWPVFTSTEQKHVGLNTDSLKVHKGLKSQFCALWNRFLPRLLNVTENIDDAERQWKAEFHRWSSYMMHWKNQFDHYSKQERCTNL
# UniProt P97612, whole entry: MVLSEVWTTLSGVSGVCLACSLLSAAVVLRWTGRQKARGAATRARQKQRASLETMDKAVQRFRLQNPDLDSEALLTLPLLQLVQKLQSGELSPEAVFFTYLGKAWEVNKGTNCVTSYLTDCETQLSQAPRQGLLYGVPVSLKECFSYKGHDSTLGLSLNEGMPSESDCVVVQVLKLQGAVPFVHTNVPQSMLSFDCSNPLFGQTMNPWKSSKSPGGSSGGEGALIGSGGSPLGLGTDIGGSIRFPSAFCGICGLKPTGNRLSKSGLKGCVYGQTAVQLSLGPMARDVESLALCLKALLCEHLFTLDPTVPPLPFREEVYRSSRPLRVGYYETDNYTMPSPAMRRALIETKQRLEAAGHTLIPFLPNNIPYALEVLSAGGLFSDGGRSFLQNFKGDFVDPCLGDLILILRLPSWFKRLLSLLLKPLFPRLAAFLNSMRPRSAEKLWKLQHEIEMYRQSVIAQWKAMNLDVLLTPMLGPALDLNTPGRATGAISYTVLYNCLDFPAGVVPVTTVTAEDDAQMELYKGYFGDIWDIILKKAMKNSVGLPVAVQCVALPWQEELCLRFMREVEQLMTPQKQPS
# Tests used:
# [1] = target: electric eel acetylcholinesterase (Electrophorus electricus, UniProt O42275); settings: read-out: Cholinesterase IC50, Table 3
# FAAH = FAAH (Rattus norvegicus, UniProt P97612); settings: read-out: Amidohydrolase IC50; Table 3
structure (smiles),measurement,setting,value
CCNC(=O)Oc1ccc(C)cc1,IC50,[1],> 30 µM
same,IC50,FAAH,> 30 µM
